In patent US20150160193A1, “TUMOR CELL ISOLATION/PURIFICATION PROCESS AND METHODS FOR USE THEREOF” (DIATECH ONCOLOGY, priority 2012, published 2015):

Tested on: Purified breast cancer cells from 67 patient (Pt) biopsies
Assay: MiCK assay of drug-induced apoptosis, breast cancer specimens
Type: cell-based, human
Conditions: patient pairwise comparison, listed as docetaxel
Protocol: Apoptosis(KU)=(VmaxDrug Candidate Treated−VmaxControl)×60×X/(ODcontrol−ODblank)
Within 24 to 48 hours of collection, the specimen was minced, digested with 0.25% trypsin and 0.08% DNase for 1-2 hours at 37 C.°, and then filtered through a 100 micrometer cell strainer. When necessary, non-viable cells were removed by density gradient centrifugation. The cell suspension was then incubated for 30 min at 37° C. in a tissue culture flask to remove macrophages by adherence. For epithelial tumors lymphocytes were removed by 30 minute incubation with CD2 antibody conjugated magnetic beads for T lymphocytes and CD19 antibody conjugated magnetic beads for B lymphocytes. Remaining macrophages were removed, if necessary, using CD14 antibody conjugated magnetic beads. The final cell suspension was plated into a 96-well half-area plate, 120 microliter aliquot per well. The plate was incubated overnight at 37° C. with 5% carbon dioxide humidified atmosphere. 5×10^4 to 1.5×10^5 cells were seeded per well depending on the cell volume to give adequate well-bottom coverage. […]

CC(=O)O[C@@]12CO[C@@H]1C[C@H](O)[C@@]1(C)C(=O)[C@H](O)C3=C(C)[C@@H](OC(=O)[C@H](O)[C@@H](NC(=O)OC(C)(C)C)c4ccccc4)C[C@@](O)([C@@H](OC(=O)c4ccccc4)[C@H]21)C3(C)C [Taxotere, docetaxel]
Mean Difference (95% CI) of KU vs Abraxane (drug minus Abraxane): APOP>nab-paclitaxel
Mean Difference (95% CI) of KU vs Taxol (drug minus Taxol): not different
